{"source": "patent US20250114653A1", "about": "“COMPOSITIONS, METHODS, AND ARTICLES COMPRISING COCAINE ESTERASE FOR DETOXIFYING AN ORGANOPHOSPHATE-BASED AGENT” (published 2025)", "system": "cocaine esterase", "conditions": "incubated with protein at 37° C., time points over 6 hours, LC/MS/MS peak area", "data": [{"smiles": "COP(=O)(OC)OC=C(Cl)Cl", "values": [{"measurement": "substrate depletion by cocaine esterase", "result": "depleted to a level indistinguishable from noise within the first hour"}]}]}
